Results as given in US20100137222A1, “Basic Peptides and Their Use as Combined Antibacterial-Antifungine Agents” (NOVABIOTICS LIMITED, priority 2007, published 2010).
In brackets after ≈: the same amount, converted by molar mass.

What was measured:
P. acnes DSM1897 = format: cell-based, Propionibacterium acnes; conditions: Table 2
Procedure: Broth Dilution Antibacterial Susceptibility Testing
The sensitivity of relevant bacterial strains to peptides was determined using Clinical Laboratory Standard Institute (CLSI; formerly NCCLS) Approved Standards. Bacterial susceptibility was tested using “Methods for Dilution Antimicrobial Susceptibility Tests for Bacteria That Grow […]; Approved Standard—Seventh Edition M7-A7”

M. furfur DSM6170 = format: cell-based, Malassezia furfur
Procedure: Broth Dilution Antifungal Susceptibility Testing
The sensitivity of relevant fungal strains to peptides was determined using Clinical Laboratory Standard Institute (CLSI; formerly NCCLS) Approved Standards. Yeast susceptibility was tested using “Reference Method for Broth Dilution Antifungal Susceptibility Testing of Yeasts; Approved Standard—Second Edition M27-A”.

SMILES: N=C(N)NCCC[C@H](NC(=O)[C@H](CCCNC(=N)N)NC(=O)[C@H](CCCNC(=N)N)NC(=O)[C@H](CCCNC(=N)N)NC(=O)[C@H](CCCNC(=N)N)NC(=O)[C@H](CCCNC(=N)N)NC(=O)[C@H](CCCNC(=N)N)NC(=O)[C@H](CCCNC(=N)N)NC(=O)[C@@H](N)CCCNC(=N)N)C(=O)O [NP316, RRRRRRRRR]
- Antimicrobial Activity (MIC) P. acnes DSM1897 (P. acnes DSM1897): 31.3 µM
- Antimicrobial Activity (MIC) M. furfur DSM6170 (M. furfur DSM6170; Table 2): 125 µM
- MIC against Malassezia furfur DSM6170 (M. furfur DSM6170; Table 3, unstarred values): 125 µM (≈ 178 µg/mL)
